Earlier results, collected in US12091408B2, “Store overload-induced calcium release inhibitors and methods for producing and using the same” (UTI Limited Partnership, priority 2013, dated 2024).

System: skeletal muscle sarcoplasmic reticulum
Settings: reported; cited from earlier work

With `Oc1ccc2[nH]c3ccc(Br)cc3c2c1Br` as the compound, how does the “inhibition of Ca2+-induced Ca2+ release (CICR)” value read?
Its value is “inhibit Ca^2+-induced Ca^2+ release (CICR)”.
